PubChem BioAssay AID434955 (Southern Research Specialized Biocontainment Screening …, 2010)
The list shows a part of the results, in another mix than the full data.

Assay: beta-lactam sensitization of Mtb H37Rv, H37Rv (AID 434955);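 further: growth measured after seven days incubation then overnight dye step; 0% = bacteria only wells and 100% = bacteria with antibiotic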
Settings: M. tuberculosis H37Rv growth with meropenem, percent inhibition; measured here: primary screen without meropenem; at 25 µM

Structure (SMILES)	inhibition [%]
CCCCCCCCCCCCCCCC[N+](C)(C)CCN(Cc1ccc(OC)cc1)c1ncccn1	-6.92
